Reference: patent US8846682B2, “Compound suitable for the treatment of synucleopathies” (Neuropore Therapies, Inc., priority 2009, dated 2014)

Tests used:
SYN [1] = molecular target: T1, SYN (Homo sapiens, UniProt P37840)
SYN [2] = molecular target: T1, SYN; conditions: B103 cells, immunoblot
SYN [3] = molecular target: T1, SYN; remark: listed apart in the source

SMILES: CCCCNC(=O)C(Cc1c[nH]c2ccccc12)NC(=O)c1cnc(N2CCNCC2)s1 (stereo not drawn) [NPT200-5]
- reduction of SYN aggregation (SYN [1]; 0.1 μM concentration, SYN at 5 μM): 50%
- blocking SYN aggregation (SYN [1]; early and later time points of the oligomerization process, 37° C., 0-24 hours, FIG. 4): completely blocking SYN aggregation
- reduction of SYN levels (SYN [2]; 0.1 μM concentration): 50%
- reduction in the levels of aggregates (but also the monomers) in the various fractions (SYN [2]; LV-SYN, 24 hrs treatment, soluble and insoluble fractions, FIG. 5): 50-60%
- reduction of SYN levels (SYN [3]; 0.1 μM concentration, immunocytochemistry/confocal): 50%
- reduction in the levels of aggregates in the neuronal cell bodies and neurites (SYN [3]; 24 hrs treatment in serum free media, confocal microscopy, FIG. 6): 60-65%

Read-outs that look alike come from different tables or passages of the source.
